This is an account of results in patent US20250122183A1 (Pfizer Inc., priority 2023, published 2025).

Protein sequences, listed by entry. Tags and fused reporters are not part of them. Chains listed by the source or under a name are the forms on record and can include a tag or linker. Residues count along the entry.
UniProt O95251, whole entry: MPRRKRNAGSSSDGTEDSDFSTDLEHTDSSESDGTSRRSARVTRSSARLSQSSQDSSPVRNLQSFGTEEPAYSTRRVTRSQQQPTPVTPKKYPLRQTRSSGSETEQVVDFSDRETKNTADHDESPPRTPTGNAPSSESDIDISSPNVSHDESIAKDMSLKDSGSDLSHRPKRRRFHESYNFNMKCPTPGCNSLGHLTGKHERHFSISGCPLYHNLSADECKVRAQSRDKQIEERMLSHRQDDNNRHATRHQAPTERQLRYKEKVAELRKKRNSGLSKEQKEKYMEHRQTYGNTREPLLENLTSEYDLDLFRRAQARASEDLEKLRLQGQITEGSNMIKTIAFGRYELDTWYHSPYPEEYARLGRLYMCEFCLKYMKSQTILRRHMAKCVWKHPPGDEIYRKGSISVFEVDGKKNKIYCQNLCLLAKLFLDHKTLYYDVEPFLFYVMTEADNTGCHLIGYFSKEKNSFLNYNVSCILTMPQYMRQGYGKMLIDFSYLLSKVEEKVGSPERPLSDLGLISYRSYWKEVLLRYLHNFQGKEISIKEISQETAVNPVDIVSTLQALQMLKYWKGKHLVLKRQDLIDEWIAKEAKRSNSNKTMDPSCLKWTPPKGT
UniProt Q92794, 1-2004 with tags or gaps limits assumed: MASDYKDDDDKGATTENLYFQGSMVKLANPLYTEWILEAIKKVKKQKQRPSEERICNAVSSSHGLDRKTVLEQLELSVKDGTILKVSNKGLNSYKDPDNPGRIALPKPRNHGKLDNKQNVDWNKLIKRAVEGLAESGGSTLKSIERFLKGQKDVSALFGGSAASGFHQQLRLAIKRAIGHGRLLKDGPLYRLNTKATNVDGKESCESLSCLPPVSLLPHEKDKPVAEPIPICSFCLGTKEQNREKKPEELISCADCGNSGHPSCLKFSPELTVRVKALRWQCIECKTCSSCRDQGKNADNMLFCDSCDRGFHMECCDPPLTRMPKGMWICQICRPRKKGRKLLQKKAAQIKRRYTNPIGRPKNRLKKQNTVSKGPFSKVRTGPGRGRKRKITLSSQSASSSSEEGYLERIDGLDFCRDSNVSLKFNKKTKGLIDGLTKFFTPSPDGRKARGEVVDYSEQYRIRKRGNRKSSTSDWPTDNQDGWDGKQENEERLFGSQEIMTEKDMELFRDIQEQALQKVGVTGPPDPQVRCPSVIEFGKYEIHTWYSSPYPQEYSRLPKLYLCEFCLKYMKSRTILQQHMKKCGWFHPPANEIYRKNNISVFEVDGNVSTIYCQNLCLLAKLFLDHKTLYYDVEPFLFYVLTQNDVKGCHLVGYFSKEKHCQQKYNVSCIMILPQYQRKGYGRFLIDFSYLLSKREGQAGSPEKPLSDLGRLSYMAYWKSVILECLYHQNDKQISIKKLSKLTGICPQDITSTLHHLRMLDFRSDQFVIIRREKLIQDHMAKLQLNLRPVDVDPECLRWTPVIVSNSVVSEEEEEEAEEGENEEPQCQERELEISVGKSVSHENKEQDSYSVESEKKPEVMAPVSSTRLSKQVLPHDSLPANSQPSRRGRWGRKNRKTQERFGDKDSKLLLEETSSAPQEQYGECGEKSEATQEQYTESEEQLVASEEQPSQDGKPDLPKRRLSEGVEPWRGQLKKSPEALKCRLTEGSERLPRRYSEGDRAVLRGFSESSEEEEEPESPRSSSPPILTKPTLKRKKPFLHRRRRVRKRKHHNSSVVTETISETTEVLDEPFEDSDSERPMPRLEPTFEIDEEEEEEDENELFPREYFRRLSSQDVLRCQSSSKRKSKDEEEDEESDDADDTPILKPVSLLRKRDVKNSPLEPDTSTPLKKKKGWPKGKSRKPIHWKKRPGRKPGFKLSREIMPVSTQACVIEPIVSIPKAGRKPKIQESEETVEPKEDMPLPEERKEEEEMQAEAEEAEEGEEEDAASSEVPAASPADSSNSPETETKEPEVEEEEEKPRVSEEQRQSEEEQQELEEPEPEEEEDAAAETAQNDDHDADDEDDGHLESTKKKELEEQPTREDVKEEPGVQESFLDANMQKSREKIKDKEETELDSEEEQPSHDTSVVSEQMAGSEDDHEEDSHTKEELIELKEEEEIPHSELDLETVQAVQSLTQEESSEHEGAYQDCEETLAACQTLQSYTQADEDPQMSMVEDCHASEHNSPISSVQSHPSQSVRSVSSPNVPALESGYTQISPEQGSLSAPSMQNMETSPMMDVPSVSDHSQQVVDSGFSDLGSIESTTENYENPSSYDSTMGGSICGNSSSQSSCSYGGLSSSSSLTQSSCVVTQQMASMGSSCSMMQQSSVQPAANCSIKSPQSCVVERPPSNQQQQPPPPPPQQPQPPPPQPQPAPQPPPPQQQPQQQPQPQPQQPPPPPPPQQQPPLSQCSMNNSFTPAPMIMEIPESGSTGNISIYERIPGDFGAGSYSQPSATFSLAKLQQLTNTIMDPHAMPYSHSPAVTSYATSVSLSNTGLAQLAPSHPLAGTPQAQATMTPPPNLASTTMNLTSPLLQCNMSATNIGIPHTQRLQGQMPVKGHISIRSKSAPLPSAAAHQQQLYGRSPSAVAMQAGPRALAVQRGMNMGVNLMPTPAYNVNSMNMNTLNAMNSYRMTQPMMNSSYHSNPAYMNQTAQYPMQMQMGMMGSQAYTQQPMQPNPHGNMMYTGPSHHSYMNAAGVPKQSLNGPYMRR

Test [1] deals with KAT7+JADE1+EAF6+ING5 4 protein complex (Homo sapiens (Human), UniProt O95251). Put plainly: KAT7 JADE1 assay (SAMDI-MS acetylation of H3 1-21 peptide). It is filed as biochemical. The following applies: read-out: KAT7 JADE1 Ki (nM) (replicate number); Morrison equation fit; replicate number in parentheses.
Another test addresses KAT6A Full length enzyme (Homo sapiens (Human), UniProt Q92794). Nature of the test: KAT6A assay (SAMDI-MS acetylation of H3 1-21 peptide). It is filed as biochemical. The following applies: read-out: KAT6A Ki (nM) (replicate number); Morrison equation fit; replicate number in parentheses.

As a reminder, the Ki is the equilibrium dissociation constant of an inhibitor or competing ligand from its target. With `[2H]C([2H])([2H])N1CCC(F)(F)C(c2cc(OC)c(S(=O)(=O)Nc3noc4cc(Nc5cc(C6CC6)n[nH]5)c(OC)cc34)c(OC)c2)C1` (single isomer, unassigned), the figures for the Ki (in test [1]; on KAT6A Full length enzyme) were 1.5 nM and 0.3 nM, respectively.
